# Ab-14 heavy chain CDR variants: yeast mating affinities

Target peptide (SARS-CoV-2 spike, HR2 region): PDVDLGDISGINAS

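The parent was found by panning a naive human phage display library on the peptide. Designed CDR sequences, proposed from the first random library and measured here. Several design methods are mixed in this list. AlphaSeq pools MATa yeast showing the antibodies with MATalpha yeast showing the peptide. Mating (16 h, 30 °C) was followed by selection of diploids and sequencing of their barcodes. The ratio of observed to expected reads was calibrated, replicate by replicate, on BCL2-family standards whose Kd was known from biolayer interferometry. Each pool was mated in six replicate cultures.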

Ab-14 is the parent antibody, in scFv form: VH, then three GGGGS repeats, then VL. The light chain is unchanged in all variants.
VH: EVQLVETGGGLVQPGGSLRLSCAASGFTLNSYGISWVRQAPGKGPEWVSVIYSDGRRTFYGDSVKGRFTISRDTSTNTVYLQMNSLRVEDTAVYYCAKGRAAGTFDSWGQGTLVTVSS
VL: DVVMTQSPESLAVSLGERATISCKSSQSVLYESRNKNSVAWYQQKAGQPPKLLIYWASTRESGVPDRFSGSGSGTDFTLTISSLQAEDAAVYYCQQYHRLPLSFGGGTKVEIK

Variants are written as CDR1, CDR2 and CDR3 of the heavy chain (limits as in the source). Parent: GFTLNSYGIS, VIYSDGRRTFYGDSVK, GRAAGTFDS. This list holds designs with more than six substitutions. Affinities are written as log10 Kd with Kd in nM; a lower number is a better binder. A mean of the replicates is given; it leaves out those without a signal. "ND" means that the variant was in the library but no mating with the target was seen in that replicate; the authors take this as a sign of poor binding, and no number exists. The list is sorted by this average, lowest first, undetected variants last. The range of this assay differs from that of the first round, and the authors advise against merging the two.

GFDLEDYGIS | VIYADGMRTAYTDSVK | GEVAGTFDL: -1.60, -1.92, -2.04, ND, -0.78, ND (mean -1.58; controls 0 of 18).
GFDLEDYGIS | VIYADGMRTAYADSVK | GNVAGTFDQ: -1.36, -1.16, -0.87, -0.82, -0.82, -1.43 (mean -1.08; controls 0 of 18).
GFDLNEYGIS | VIYADGMRTAYADSVK | GGVAGTFDL: -1.05, -1.12, -0.93, -1.30, -0.52, -1.03 (mean -0.99; controls 1 of 18).
GFDLNEYGIS | VIYADGRRTAYADSVK | GSNAGTFDQ: -0.81, -0.95, -1.11, -0.96, -1.07, -0.85 (mean -0.96; controls 0 of 18).
GFDLNEYGIS | VIYADGRRTAYADSVK | GETAGTFDQ: -0.45, -1.09, -1.29, -0.88, -0.39, -0.83 (mean -0.82; controls 0 of 18).
GFDLNEYGIS | VIYADGLRTAYSDSVK | GNQAGTFDV: -0.80, -1.11, -0.13, ND, -0.76, -0.63 (mean -0.69; controls 0 of 18).
GFDLNEYGIS | VIYADGRRTYYADSVK | GNVAGTFDT: -0.56, -0.62, -0.44, -0.77, -0.81, -0.53 (mean -0.62; controls 0 of 18).
GFDLNEYGIS | VIYADGQRTAYADSVK | GKLAGTFDS: -0.50, -0.44, -0.56, -0.83, -0.70, -0.42 (mean -0.57; controls 1 of 18).
GFNLDEYGIS | VIYADGRRTFYQDSVK | GEVAGTFDA: -0.34, -0.75, -0.45, -0.52, -0.61, -0.37 (mean -0.51; controls 0 of 18).
GFNLNEYGIS | VIYADGRRTFYSNSVK | GENAGTFDV: -0.05, -0.50, -0.53, -0.52, -0.62, -0.23 (mean -0.41; controls 0 of 18).
GFNLNEYGIS | VIYADGRRSFYSDSVK | GEAAGTFDV: -0.10, -0.38, -0.38, -0.69, -0.45, -0.42 (mean -0.40; controls 0 of 18).
GFDLNEYGIS | VIYADGMRTAYSDSVK | GENAGTFDM: -0.20, -0.27, -0.35, -0.67, -0.76, -0.10 (mean -0.39; controls 0 of 18).
GFDLNEYGIS | VIYADGRRTFYSDSVK | GESAGTFDQ: 0.07, -0.30, -0.27, -0.37, -0.23, -0.05 (mean -0.19; controls 0 of 18).
GFDLNEYGIS | VIYADGQRTAYADNVK | GQNAGTFDV: -0.38, 0.47, -0.25, -0.73, 0.29, -0.54 (mean -0.19; controls 0 of 18).
GFDLNEYGIS | VIYADGKRTFYVDSVK | GETAGTFDS: 0.26, -0.59, -0.59, -0.01, -0.23, 0.37 (mean -0.13; controls 0 of 18).
GFDLEDYGIS | VIYADGMRTAYTDSVK | GNVAGTFDI: 0.04, -0.03, -0.24, -0.41, -0.23, 0.21 (mean -0.11; controls 0 of 18).
GFDLNEYGIS | VIYADGSRTAYSDSVK | GNVAGTFDQ: 0.19, -0.22, -0.19, -0.20, 0.23, -0.01 (mean -0.03; controls 0 of 18).
GFDLDEYGIS | VIYADGRRTFYADSVK | GGLAGTFDV: 0.17, 0.09, -0.08, -0.03, -0.22, 0.10 (mean 0.01; controls 1 of 18).
GFDLNEYGIS | VIYADGRRTAYSDSVK | GGNAGSFDS: -0.10, 0.04, 0.12, 0.51, 0.01, -0.16 (mean 0.07; controls 0 of 18).
GFDLNEYGIS | VIYADGRRTAYTDSVK | GEFAGTFDQ: 0.54, 0.10, 0.34, -0.16, 0.57, 0.13 (mean 0.25; controls 0 of 18).
GFDLNEYGIS | VIYADGMRTSYADSVK | GEVAGTFDV: 0.57, -0.77, 0.86, -0.63, -0.81, 2.82 (mean 0.34; controls 0 of 18).
GFNLNEYGIS | VIYADGRRSAYSDSVK | GEAAGTFDV: ND, 1.49, -0.05, -0.02, 0.09, 0.24 (mean 0.35; controls 0 of 18).
GFDINEYGIS | VIYADGSRTAYADTVK | GQWGCVFYV: ND, ND, ND, 0.49, ND, ND (controls 0 of 18).
GFDLDEYGIS | VIYADGRRTFYADSVK | GENAGTFLS: 0.47, 0.41, 0.41, 0.52, 0.50, 0.88 (mean 0.53; controls 1 of 18).
GFDLNEYGIS | VIYADGVRTAYVDSVK | GEVAGTFDL: 1.38, 1.39, 1.19, 0.69, 1.31, 0.85 (mean 1.14; controls 0 of 18).
GDDLAEYGVS | VIYADGKRTKYSDHVK | GEVGGFFDA: ND, ND, ND, ND, ND, ND (controls 0 of 18).
GMDLNEYGIS | VIYADGLRTAYIDEVK | GKGSVIVGH: ND, ND, ND, ND, ND, ND (controls 0 of 18).
GFDLDEYGIS | VIYADGSRTAYSKNVK | GGFDDKVIV: ND, ND, ND, ND, ND, ND (controls 0 of 18).
GFSLDEYGIS | VIYADGRRTMYCDNFK | GELGCTFVI: ND, ND, ND, ND, ND, ND (controls 0 of 18).
GFDLEEYGIS | VIYADGVREAYTENVK | GNSMGMDML: ND, ND, ND, ND, ND, ND (controls 0 of 18).
GFDLQEIGIS | VIYADGTRQAYVEKVK | GQLAGFLVD: ND, ND, ND, ND, ND, ND (controls 0 of 18).
GFDLDEYGVS | VIYADGNRNQYTEDVK | GTNSGAVDM: ND, ND, ND, ND, ND, ND (controls 0 of 18).
GEDLDEYGIS | VIYADGLRTAYSDNFK | GNLGGQFDM: ND, ND, ND, ND, ND, ND (controls 0 of 18).
GFVFDEYGIS | VIYADGIRQFYQDKVK | GEVTGMFDI: ND, ND, ND, ND, ND, ND (controls 0 of 18).
GFDLNEYGIS | VIYADGQRTAYADDVK | GNTAGTFDI: ND, ND, ND, ND, ND, ND (controls 0 of 18).

Excerpt, the final 3 entries:

With GEDLDEYGIS | VIYADGLRTAYSDNFK | GNLGGQFDM the result was ND, ND, ND, ND, ND, ND (controls 0 of 18).
With GFVFDEYGIS | VIYADGIRQFYQDKVK | GEVTGMFDI the result was ND, ND, ND, ND, ND, ND (controls 0 of 18).
With GFDLNEYGIS | VIYADGQRTAYADDVK | GNTAGTFDI the result was ND, ND, ND, ND, ND, ND (controls 0 of 18).

Three control strains display no target. For all heavy chain designs, 1% of the pairings with them gave a signal, with a median of 2.08 and one signal in twenty below 0.84, so weak values seen in few replicates may be background. The control count says in how many pairings with the empty strains this scFv gave a signal. The authors averaged sequences with at least three values out of six and counted those with two or fewer as poor binders.

Values reported by Li et al. 2023, doi:10.1038/s41467-023-39022-2 (FLAb copy).